Data from publication PMC11125197, “Evaluation of Drug Blood-Brain-Barrier Permeability Using a Microfluidic Chip” (Pharmaceutics, 2024).

Tested on: human BBB-on-a-chip (hBMEC, HBVP, NHA)

CC[C@]1(O)C[C@H]2CN(CCc3c([nH]c4ccccc34)[C@@](C(=O)OC)(c3cc4c(cc3OC)N(C=O)[C@H]3[C@@](O)(C(=O)OC)[C@H](OC(C)=O)[C@]5(CC)C=CCN6CC[C@]43[C@@H]65)C2)C1 [Vincristine, vincristine]
Css,brain (steady state concentration of brain channel): 51.41 ng/mL
